Tests used:
[1] = target: mouse melanocortin 4 receptor, wildtype mMC4R, stably expressed on HEK293 cells (mouse) (UniProt P56450)
[2] = target: mouse melanocortin 4 receptor, wildtype mMC4R, stably expressed on HEK293 cells (mouse) (UniProt P56450); test: radioligand binding

Protein sequences, listed by entry. Tags and fused reporters are not part of them.
UniProt P56450, whole entry: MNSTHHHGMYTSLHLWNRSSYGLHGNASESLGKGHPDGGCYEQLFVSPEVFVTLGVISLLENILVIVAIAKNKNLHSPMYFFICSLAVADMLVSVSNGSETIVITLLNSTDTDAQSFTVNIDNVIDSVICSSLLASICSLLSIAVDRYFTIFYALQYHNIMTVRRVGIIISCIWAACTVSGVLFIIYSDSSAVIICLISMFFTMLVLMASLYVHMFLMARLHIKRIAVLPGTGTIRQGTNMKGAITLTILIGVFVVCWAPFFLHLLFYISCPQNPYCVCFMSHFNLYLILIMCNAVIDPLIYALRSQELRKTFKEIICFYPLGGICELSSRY

Agonist cAMP Based Alpha Screen Results EC50 (nM), stable mMC4R cells [1]: 8.5 nM | IC50 [2]: 130 nM
Substance: CJL-1-14, Ac-His-DPhe-Arg-Trp-NH2 (peptide)
